Test results from patent US20250381223A1 (UTC THERAPEUTICS SHANGHAI, published 2025).

T1: CD123-Fc recombinant protein (human, UniProt P26951 19-305)
T1 construct: construct not described; not shown: Fc part
T1 sequence (looked up): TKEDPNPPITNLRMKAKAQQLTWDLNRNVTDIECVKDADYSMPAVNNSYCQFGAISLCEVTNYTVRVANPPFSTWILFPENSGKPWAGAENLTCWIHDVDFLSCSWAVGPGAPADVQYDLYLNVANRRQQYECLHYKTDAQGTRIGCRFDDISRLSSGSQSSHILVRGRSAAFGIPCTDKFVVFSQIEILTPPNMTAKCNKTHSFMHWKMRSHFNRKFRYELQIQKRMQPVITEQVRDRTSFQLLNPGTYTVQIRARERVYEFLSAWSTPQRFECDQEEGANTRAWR


Target: T1, CD123-Fc recombinant protein
Experiment: flow cytometry of T cells electroporated with CAR mRNA, stained with CD123-Fc + PE-anti-hIgG-Fc; Mock 0.36
Description: The CD123 CAR mRNAs obtained in Example 35 above were each introduced into T cells by electroporation according to the following procedures: T cells were collected, washed with the Opti-MEM medium, and resuspended at 1×10e⁷/mL with the Opti-MEM medium; 10 μg of RNA and 100 μL of T cells were aliquoted, mixed well, and electroporated under the following parameters (BTX machine): 500 V, 0.7 ms; the cells were then transferred to a pre-warmed medium and cultured at 37° C. The binding of CD123 CART cells to the CD123-Fc recombinant protein was detected by FACS staining. […] Empty vector (Mock) was a control T cell without CAR molecule. A549 tumor cells were electroporated with different amounts of CD123 mRNA. The electroporation procedure was the same as described above, and only the parameters were changed, with the parameters 300 V, 0.5 ms used. CD123 expression in A549 tumor cells was detected by FACS staining of isotype or anti-CD123 antibodies and A549 cells electroporated with different amounts of CD123 mRNA. […] The cytotoxicity of CD123 CART cells against tumor cells was detected in an in vitro cytotoxicity assay. Tumor cells expressing EGFP or EGFP-A549 cells electroporated with different amounts of tumor antigen were seeded at 3000 cells/100 μL/well into a flat-bottom 96-well plate; CART cells were diluted to a proper concentration and seeded to the 100 μL/well tumor cells according to different E/T ratios (e.g., 10:1, 3:1, or 1:1), and the co-culture plate was placed into the IncuCyte S3 machine and scanning parameters were set. After scanning for 3 days, the total green object integrated intensity (GCU×μm²/well) was analyzed to calculate the killing efficiency.

percent of cells in the CD123-Fc positive gate [%]	Binder
70	anti-CD123 scFv-C35 (scFv, On mRNA-electroporated T cells as CAR) scFv: QSVVTQPPSVSAASGQKVTISCSGSSPNIGNNYVSWYQHLPGTAPKLLIYDNNKRPSGIPDRFSGSKSGTSVTLGITGLQTGDEADYYCGTWDSRLNIWVFGGGTKLTVLGGGGSGGGGSGGGGSEVHLVESGGGLVKPGGSLRLSCAASGFTFSNAWMSWVRQAPGKGLEWVGRIKSKTDGGTTDYAAPVKGRFTISRDDSKNTLYLQMNSLKTEDTAVYYCTTEAAGFYYYYYGMDVWGQGTTVTVSS
63.8	anti-CD123 scFv-C25 (scFv, On mRNA-electroporated T cells as CAR) scFv: QSALTQPASVSGPPGQSITISCTGTSSDVGGYNYVSWYQQHPGKAPKLMIYDVSNRPSGVSNRFSGSKSGNTASLTISGLQAEDEADYYCSSYTSSSTWVFGGGTKLTVLGGGGSGGGGSGGGGSEVHLVESGGGLVKPGGSLRLSCAASGFTFSNAWMSWVRQAPGKGLEWVGRIKSKTDGGTTDSAAPVKGRFTISRDDSKNTLYLQMNSLKTEDTAVYYCTTYYFYSSGDMTDYWGQGTLVTVSS
37.6	anti-CD123 scFv-C28 (scFv, On mRNA-electroporated T cells as CAR) scFv: QSALTQPASVSGSPGQSITISCTGTSSDVGGYNYVSWYQQHPGKAPKLMIYDVSNRPSGVSNRFSGSKSGNTASLTISGLQAEDEADYYCSSYTSSSNWVFGGGTELTVLGGGGSGGGGSGGGGSEVHLVESGGGLVKPGGSLRLSCAASGFTFSNAWMSWVRQAPGKGLEWVGRIKSKTDGGTTDSAAPVKGRFTISRDDSKNTLYLQMNSLKTEDTAVYYCTTYYFYSSGDMTDYWGQGTLVTVSS
